Earlier results, collected in patent US20230248744A1, “25-HYDROXYVITAMIN D2 AND/OR D3 FOR USE IN OBESITY” (CARBOGEN AMCIS B.V., priority 2020, published 2023).
Read-outs that look alike come from different tables or passages of the source.

Columns and labels:
[1] = cited from earlier work
[2] = oral single dose of 1250 μg; cited from earlier work
[3] = men and women, 50,000 IU (1250 μg) once a week for 8 weeks

## vitamin D
[1]; [3]
  serum 25(OH)D maintained: > 30 ng/mL
  toxicity: without toxicity
[1]; single or multiple oral doses of 1250 μg vitamin D, or a dose of 900 μg 25(OH)D3
  reports of toxicity: toxicity has never been reported
[1]; single oral dose of 1250 μg once a week for 8 weeks or every 2 weeks for up to 6 years
  toxicity: not associated with toxicity
[2]
  toxicity in pharmacokinetic study: did not show any untoward toxicity
